What is called inhibition is the relative decrease from the control value, in per cent.

The chains behind the UniProt entries cited, without tags or fusion partners. Where a name states a change or a piece, a line headed by the entry shows the natural chain unless it says otherwise.
UniProt Q00535, whole entry, looked up: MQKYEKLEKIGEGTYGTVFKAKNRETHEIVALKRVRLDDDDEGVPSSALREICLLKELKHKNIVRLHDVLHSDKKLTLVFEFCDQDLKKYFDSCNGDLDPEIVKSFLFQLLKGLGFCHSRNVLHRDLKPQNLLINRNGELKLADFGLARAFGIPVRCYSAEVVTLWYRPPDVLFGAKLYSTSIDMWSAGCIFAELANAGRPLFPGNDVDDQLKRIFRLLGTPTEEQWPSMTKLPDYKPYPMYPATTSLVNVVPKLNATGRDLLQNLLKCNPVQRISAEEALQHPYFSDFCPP
UniProt Q15078: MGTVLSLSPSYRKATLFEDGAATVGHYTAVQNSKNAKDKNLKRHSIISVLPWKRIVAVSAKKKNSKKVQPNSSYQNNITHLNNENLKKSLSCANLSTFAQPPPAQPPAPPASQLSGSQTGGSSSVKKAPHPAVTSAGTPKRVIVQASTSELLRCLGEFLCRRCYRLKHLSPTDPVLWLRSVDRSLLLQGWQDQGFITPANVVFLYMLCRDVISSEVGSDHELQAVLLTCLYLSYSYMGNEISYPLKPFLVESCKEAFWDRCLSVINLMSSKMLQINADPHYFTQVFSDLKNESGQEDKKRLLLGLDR

Some of the results follow. Active and inactive are the calls of the source.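 Rule for the calls: active = highest replicate inhibition of at least 50% and at least 75% of replicates reaching 50%; inconclusive = only one of the two criteria met; inactive = both criteria failed.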

This test addresses Cyclin-dependent kinase 5 (Homo sapiens) + Cyclin-dependent kinase 5 activator 1 (Homo sapiens) (UniProt Q00535+Q15078). Put plainly: inhibitors of human CDK5/p35 kinase, primary screen, biochemical, single concentration (AID 488839).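 Note: plate controls were DMSO neutral control for no effect and GW8510 at 10 µM for full effect.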 The following applies: Recombinant CDK5/p35, ADP-Glo luminescence, 60 min; at 10 µM; stronger effect = higher value. In general terms: ADP-Glo turns the ADP formed in a reaction into a luminescent signal.
In the case of `C[C@@H]1C=CCP(=O)(Oc2ccccc2)O1` (stereo partly drawn), the inhibition was inactive: -1.68%.

Turning to `Cc1ccccc1CN(C)C(=O)COC(=O)C(O)(c1ccccc1)c1ccccc1`, the inhibition is inactive: -0.581%.

As to `COC(=O)C1(C)COP(=O)(NCc2ccccc2)OC1` (stereo not drawn), the inhibition is inactive: -0.0518%.

For `CC(=O)c1ccc(N2CC2c2ccncc2)cc1` (stereo not drawn), the inhibition is inactive: -0.183%.

`N#C/C(=C\c1ccc(N(CCBr)CCBr)cc1)C(N)=O`: the inhibition was inactive: -0.381%.

On to `CC(C)(C)C(=O)NC(Sc1ccccc1)C(Cl)(Cl)Cl` (stereo not drawn), for which the inhibition is inactive: 0.398%.

As for `CCc1cc(O)c([N+](=O)[O-])c(C)c1[N+](=O)[O-]`, the inhibition is inactive: 1.38%.

For the molecule `CCOc1ccc(C2=NCC(CBr)S2)cc1` (stereo not drawn), the inhibition is inactive: 0.0511%.

On to `O=P1(Nc2nc3ccc(Cl)cc3s2)COc2ccccc2O1` (stereo not drawn), for which the inhibition is inactive: 0.924%.

In the case of `c1nnnn1CCn1cnnn1`, the inhibition is inactive: 0.927%.

`CC(C)C(=O)NC(Sc1ccccc1)C(Cl)(Cl)Cl` (stereo not drawn): the inhibition was inactive: -8.7%.

In the case of `O=P(Nc1nccs1)(c1ccccc1)c1ccccc1`, the inhibition was inactive: 0.884%.

Consider `O=C(OC1CN2CCC1CC2)c1cccc(Cl)c1` (stereo not drawn), for which the inhibition was inactive: 0.513%.

Regarding `C(Cc1nn[nH]n1)Cc1nn[nH]n1`, the inhibition was inactive: -1.19%.

Take `Nc1ccc([As](=O)(O)c2ccc([N+](=O)[O-])cc2)cc1`: the inhibition was inactive: -0.167%.

As for `O=[As](O)(c1ccccc1)c1ccc(O)cc1`, the inhibition is inactive: 0.622%.

On to `O=[N+]([O-])c1ccc(O)c(/C=N/Nc2ccc([N+](=O)[O-])cc2[N+](=O)[O-])c1`, for which the inhibition is inactive: 0.404%.

For `CC(=O)NC(SC(=S)N(C)C)C(Cl)(Cl)Cl` (stereo not drawn), the inhibition is inactive: -0.109%.

Turning to `O=[N+]([O-])c1ncn(CCn2cnc([N+](=O)[O-])n2)n1`, the inhibition was inactive: -0.243%.

`C[C@H]1OP(=O)(Oc2ccccc2)[C@H](O)[C@H](O)[C@H]1N=[N+]=[N-]` (stereo partly drawn): the inhibition was inactive: 1.94%.

Take `O=P(Nc1nc2ccccc2s1)(c1ccccc1)c1ccccc1`: the inhibition was inactive: -1.11%.

In the case of `O=P(Nc1ccccn1)(c1ccc(Br)cc1)c1ccc(Br)cc1`, the inhibition was inactive: -5.71%.

As for `CN(C)C1(CNC(=O)c2ccc(Cl)c(S(N)(=O)=O)c2)CCCCC1`, the inhibition is inactive: -0.646%.

On to `COc1ccc(N)c([N+](=O)[O-])c1[N+](=O)[O-]`, for which the inhibition is inactive: -1.27%.

Consider `O=C(O)CNc1ccc([As](=O)(O)O)cc1`, for which the inhibition was inactive: -0.464%.

Take `COC(=O)C1(C)COP(=O)(Nc2ccccc2)OC1` (stereo not drawn): the inhibition is inactive: -0.572%.

On to `O=[N+]([O-])c1cccc(NC2=NCC(CBr)S2)c1` (stereo not drawn), for which the inhibition is inactive: 3.01%.

As for `O=[N+]([O-])c1ncn(CCn2ncnc2[N+](=O)[O-])n1`, the inhibition is inactive: -0.449%.

For the molecule `CC(C)(C)C(=O)NC(Sc1ccncn1)C(Cl)(Cl)Cl` (stereo not drawn), the inhibition is inactive: -0.313%.

Regarding `O=C(Nc1cc([As](=O)(O)O)ccc1O)c1ccccc1`, the inhibition was inactive: -0.151%.

For `O=P1(N(CCCl)CCCl)OCCCS1` (stereo not drawn), the inhibition was inactive: 0.609%.

For `CC1CCN(C(=O)Oc2c(Cl)cc(Cl)c3cccnc23)CC1`, the inhibition is inactive: -0.958%.

`CN(C)C(=O)OCCc1n(C)cc[n+]1C`: the inhibition was inactive: -4.16%.

Regarding `CC(C)=N/N=C(\N)N[N+](=O)[O-]`, the inhibition is inactive: 2%.

On to `CCN(/C(=N/P(=O)(N1CCOCC1)N1CCOCC1)N1CCOCC1)c1ccc(OC)cc1`, for which the inhibition is inactive: -0.262%.

Regarding `C[N+]1=C2C=CC=CC=C2SC12C([N+](=O)[O-])=CC([N+](=O)[O-])=C[C-]2[N+](=O)[O-]` (stereo not drawn), the inhibition is inactive: 0.644%.

Turning to `Nc1ccc([As](=O)(O)c2ccc(N)cc2)cc1`, the inhibition was inactive: -1.14%.

For the molecule `CCc1nc2c(n1)c1c(non1O)c1c2no[n+]1[O-]`, the inhibition was inactive: 0.788%.

As to `O=[N+]([O-])c1cc([N+](=O)[O-])c(CCNc2ccccc2)c([N+](=O)[O-])c1`, the inhibition is inactive: 0.0262%.

For the molecule `Cc1ccc(NP(=O)(Oc2ccccc2)Oc2ccccc2)nc1`, the inhibition is inactive: -0.879%.

In the case of `O=[N+]([O-])c1cccc2n[nH]nc12`, the inhibition is inactive: -0.115%.

For `CC(=O)N1C2C3N(C(C)=O)C1C1N(C(C)=O)C(C(N1C(C)=O)N3C(C)=O)N2C(C)=O`, the inhibition is inactive: 0.168%.

As to `COc1ccc(C2=NCC(CBr)S2)cc1` (stereo not drawn), the inhibition was inactive: -0.913%.

For `O=C(NC(Sc1ccncn1)C(Cl)(Cl)Cl)c1ccccc1` (stereo not drawn), the inhibition was inactive: 1.19%.

As for `Oc1ccccc1CNc1ccccn1`, the inhibition is inactive: 0.966%.

For `Nc1cc(N)c2nonc2c1[N+](=O)[O-]`, the inhibition was inactive: 1.38%.

For the molecule `CC(C)CC(=O)NC(Sc1ccc(Cl)cc1)C(Cl)(Cl)Cl` (stereo not drawn), the inhibition is inactive: 2.26%.

Consider `CN1CCCC(OC(=O)C(c2ccccc2)c2ccccc2)C1` (stereo not drawn), for which the inhibition was inactive: -5.25%.

For `Clc1ccc(Cl)c(NC2=NCC(CBr)S2)c1` (stereo not drawn), the inhibition was inactive: -1.01%.

`COc1ccccc1OP(=O)(Nc1ccc(C)cn1)Oc1ccccc1OC`: the inhibition was inactive: 1.61%.

`Cc1ccc(N/C(=N/P(=O)(N2CCOCC2)N2CCOCC2)N2CCOCC2)cc1`: the inhibition was inactive: -8.74%.

As for `CN(C(=O)Cc1ccc(Cl)c(Cl)c1)[C@H]1CCCC[C@H]1N1CCCC1`, the inhibition is inactive: -1.31%.

On to `NC(=O)c1cc([N+](=O)[O-])cc([N+](=O)[O-])c1N`, for which the inhibition is inactive: 3.85%.

Turning to `Nc1cccc2ccc([As](=O)(O)O)cc12`, the inhibition is inactive: -3.32%.

Consider `CCN(N=Nc1nonc1N)c1nonc1N`, for which the inhibition was inactive: 0.588%.

Consider `Cc1ccc(NP(=O)(Oc2ccccc2F)Oc2ccccc2F)nc1`, for which the inhibition was inactive: -0.415%.

For the molecule `CN(C(=O)Cc1ccc(Cl)c(Cl)c1)[C@H]1CCCC[C@@H]1N1CCCC1`, the inhibition was inactive: -0.00433%.

`Cc1cc(SC(NC(=O)c2ccc(F)cc2)C(Cl)(Cl)Cl)ncn1` (stereo not drawn): the inhibition was inactive: 0.15%.

`CCOP(=O)(Nc1ccccc1)OCC`: the inhibition is inactive: 0.465%.

Regarding `O=P(Nc1nc2ccc(Cl)cc2s1)(c1ccccc1)c1ccccc1`, the inhibition was inactive: 1.32%.

Turning to `CCCC1OP(N)(=O)OCC1CC` (stereo not drawn), the inhibition is inactive: -1.93%.

As to `CC(=O)Nc1ccc([As](=O)(O)O)cc1`, the inhibition was inactive: -3.6%.

As for `O=C(O)c1ccccc1[As](=O)(O)O`, the inhibition is inactive: -1.57%.
